Molecular target: 5-hydroxytryptamine receptor 1A (Rattus norvegicus, UniProt P19327)
Test: Binding affinity towards rat 5-hydroxytryptamine 1A receptor was evaluated using [3H]8-OH-DPAT as radioligand

Amino acid sequences for entries named in this document (tags omitted).
UniProt P19327, whole entry: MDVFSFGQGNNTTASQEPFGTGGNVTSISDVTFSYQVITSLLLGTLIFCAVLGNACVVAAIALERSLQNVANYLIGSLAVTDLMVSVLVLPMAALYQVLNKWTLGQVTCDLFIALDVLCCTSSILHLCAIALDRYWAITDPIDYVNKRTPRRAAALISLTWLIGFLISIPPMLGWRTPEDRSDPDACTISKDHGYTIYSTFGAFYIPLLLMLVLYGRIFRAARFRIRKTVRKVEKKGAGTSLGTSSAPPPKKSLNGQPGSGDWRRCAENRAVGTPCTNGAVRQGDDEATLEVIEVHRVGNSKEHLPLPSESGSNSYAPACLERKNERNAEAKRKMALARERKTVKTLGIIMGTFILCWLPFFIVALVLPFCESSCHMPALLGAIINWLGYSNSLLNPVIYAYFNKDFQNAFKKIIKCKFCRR

IC50: 5.4 nM
Compound: COc1ccc2c(c1)CCCC2CCCN1CCN(c2ccccc2)CC1 (stereo unspecified)
